Source: PubChem (National Center for Advancing Translational Sciences (NCATS))
This is a sample that favours compounds with a hit; in the whole collection about 2.3% have one here.
Rango dissoc inh: qHTS Assay for Inhibitors of RanGTP induced Rango (Ran-regulated importin-beta cargo) - Importin beta complex dissociation. Snurportin-1 (Homo sapiens) + GTP-binding nuclear protein Ran (Homo sapiens) + Importin …. Biochemical FRET Rango-importin beta, RanGTP-induced dissociation. Potency, µM (titrated, usually from 46.1 µM), for inactives: top-dose activity change, negative = inhibition. actives 0.071% (n = 340,000); calls by dose curve; further: % of control where 0% means no effect; nearly all actives have a fitted effect of over 45% in size
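Compounds sat 5 min at room temperature with 0.1 uM Rango biosensor plus 0.25 uM importin beta, then FRET pre-read. RanGTP-RCC1 (0.6 uM Ran, 2mM GTP, 0.2 uM RCC1) added for 45 min, and the CFP/YFP post-read measured blocked complex dissociation.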
Nrf2 activator: qHTS of Nrf2 Activators; AREc32 ARE-luciferase reporter (MCF7-derived line), luminescence, 24 h; Potency, µM (titrated, usually from 46.1 µM), for the others: at the highest dose activation, most hits filed as activators; actives 0.31% (n = 410,000); AID 624171, 2012; further: % of control where 0% means no effect; nearly all actives have a fitted effect of over 65% in size
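Cells of the AREc32 ARE-luciferase line are plated in OPTI-MEM containing 5% FBS and left overnight at 37 deg C. Compounds are pinned in, incubation continues 24 hr, and firefly luciferase signal is then measured.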
Rango complex inh: qHTS Assay for Inhibitors of Rango (Ran-regulated importin-beta cargo) - Importin beta complex formation; Importin subunit beta-1 (Homo sapiens), Q14974; Rango CFP/YFP FRET sensor + importin beta, 45 min; Potency, µM (doses to about 92.2 µM), inactives show at the top dose inhibition of complex formation; actives 0.031% (n = 340,000); calls by dose curve;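 further: 0% = DMSO wells and 100% = buffer wells lacking importin beta; nearly all actives have a fitted effect of over 15% in size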
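FRET biosensor Rango (snurportin 1 IBB between N-terminal EYFP and C-terminal Cerulean), 50 nM in PBS/1 mM DTT/0.02% Tween-20/0.1% BSA, preincubated 5 min RT with compound; 0.125 microM importin beta added, 45 min RT, CFP/YFP FRET ratio read.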
A549 tox: Nrf2 qHTS screen for inhibitors: counterscreen for cytotoxicity; Potency, µM (series often up to 46 µM), inactives show at the highest dose activity change, negative = cytotoxicity, actives largely listed as inhibitors; A549 ARE-Fluc cells, CellTiter-Fluor viability, 18-24 h; actives 0.16% (n = 390,000); further: on the % scale 0 is the no-effect control and ±100 the full control effect
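A549 ARE-Fluc cells in 5% FBS OPTI-MEM, 5000 cells/well, rested 2 h then exposed to compounds in concentration-response for 18-24 h at 37 °C. Viability by CellTiter-Fluor fluorescence (Ex 405/Em 525) after 30 min; luciferase luminescence (BugLite, 15 min, RT) read afterwards.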
Nrf2 inh: Nrf2 qHTS screen for inhibitors | A549 ARE-Fluc reporter, luciferase luminescence, 18-24 h | Potency, µM (doses to about 46 µM), inactives show top-dose activity change, negative = inhibition, actives largely listed as inhibitors | actives 2.1% (n = 360,000); further: on the % scale 0 is the no-effect control and ±100 the full control effect; nearly all actives have a fitted effect of over 60% in size
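Cells were seeded and rested 2 h, then exposed to compounds for 18-24 h. CellTiter-Fluor was read first as a viability measure. BugLite was added 15 min before the final luminescent read of ARE-luciferase activity in A549 cells.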
Active calls of the source: *. Unless noted, the call rests on the fitted dose curve; in most records, active means well fitted curve in the direction sought with a large enough effect; inconclusive means small, poorly fitted or top-dose-only effect, or another doubt; inactive means no such curve, though single readings can be large; an effect the other way counts as inactive or inconclusive. Potency means the concentration at half of the fitted maximal effect.

The chains behind the UniProt entries cited, without tags or fusion partners.
Importin subunit beta-1 (Homo sapiens), Q14974, UniProt Q14974, whole entry, looked up: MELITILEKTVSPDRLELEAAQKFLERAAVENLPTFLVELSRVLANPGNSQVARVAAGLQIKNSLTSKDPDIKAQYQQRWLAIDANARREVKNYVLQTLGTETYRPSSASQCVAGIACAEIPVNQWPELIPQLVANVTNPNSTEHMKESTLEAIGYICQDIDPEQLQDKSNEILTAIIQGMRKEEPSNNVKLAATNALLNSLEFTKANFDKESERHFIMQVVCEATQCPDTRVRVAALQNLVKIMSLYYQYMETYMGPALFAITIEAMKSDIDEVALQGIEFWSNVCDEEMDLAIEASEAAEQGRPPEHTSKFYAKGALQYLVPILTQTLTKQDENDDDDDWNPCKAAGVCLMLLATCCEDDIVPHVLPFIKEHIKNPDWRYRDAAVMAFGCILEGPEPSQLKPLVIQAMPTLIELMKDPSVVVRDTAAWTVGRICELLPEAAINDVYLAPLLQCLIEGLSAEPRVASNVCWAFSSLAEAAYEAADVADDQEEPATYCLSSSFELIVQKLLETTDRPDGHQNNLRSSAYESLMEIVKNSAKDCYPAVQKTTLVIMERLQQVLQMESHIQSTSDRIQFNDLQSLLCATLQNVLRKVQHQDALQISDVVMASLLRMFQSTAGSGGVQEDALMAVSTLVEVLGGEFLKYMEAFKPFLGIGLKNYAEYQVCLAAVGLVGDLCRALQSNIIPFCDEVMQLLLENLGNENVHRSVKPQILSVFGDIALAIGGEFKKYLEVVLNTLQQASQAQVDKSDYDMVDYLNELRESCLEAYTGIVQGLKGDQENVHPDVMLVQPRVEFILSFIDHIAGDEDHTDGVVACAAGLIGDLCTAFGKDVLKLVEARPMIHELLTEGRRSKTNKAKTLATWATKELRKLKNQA

How did S=C(NCC1CCCO1)Nc1ccc(Nc2ccccc2)cc1 (centres undefined) do in these assays?
Rango dissoc inh: -7%; Nrf2 activator: 3%; Rango complex inh: 1%; A549 tox: -22%; Nrf2 inh: 15µM*

Results for Cc1ccc(N2C(=O)c3ccccc3C2=O)c(C)c1 ?
A549 tox: -3%; Nrf2 inh: 13%

How did CC(=O)Nc1cccc(NC(=O)c2c(-c3c(Cl)cccc3Cl)noc2C)c1 do in these assays?
Rango dissoc inh: -2%; Nrf2 activator: 0%; Rango complex inh: -2%; A549 tox: -4%; Nrf2 inh: -4%

Results for Cc1noc(NC(=O)c2c(-c3c(Cl)cccc3Cl)noc2C)c1[N+](=O)[O-] ?
Rango dissoc inh: 2%; Nrf2 activator: 0%; Rango complex inh: 3%; A549 tox: -13%; Nrf2 inh: 15µM*

Results for Cc1onc(-c2ccccc2)c1C(=O)Nc1nnc(C(C)C)s1 ?
Rango dissoc inh: -12%; Nrf2 activator: 0%; Rango complex inh: 2%; A549 tox: -1%; Nrf2 inh: -1%

How did CCCOc1ccccc1NC(=O)c1c(-c2ccccc2)noc1C do in these assays?
Rango dissoc inh: 3%; Nrf2 activator: 3%; Rango complex inh: 58µM*; A549 tox: 3%; Nrf2 inh: -5%

What do the screens show for `Cc1onc(-c2ccccc2)c1C(=O)Nc1ncc([N+](=O)[O-])s1`?
Rango dissoc inh: -10%; Nrf2 activator: 7%; Rango complex inh: 1%; A549 tox: inconclusive; Nrf2 inh: 10µM*

How did Cc1cc2c(s1)c1cnn(Cc3c(F)ccc(F)c3Cl)c(=O)c1n2C do in these assays?
A549 tox: -4%; Nrf2 inh: 5%

How did CC(=O)N1CCN(C(=O)COC(=O)c2ccc(S(C)(=O)=O)cc2)CC1 do in these assays?
Rango dissoc inh: 2%; Nrf2 activator: 0%; Rango complex inh: 3%; A549 tox: -8%; Nrf2 inh: -1%

Results for COc1ccc(NC(=O)CCCSc2nc(-c3ccco3)cc(C(F)(F)F)n2)cc1OC ?
Rango dissoc inh: -17%; Nrf2 activator: 0%; Rango complex inh: -5%; A549 tox: -17%; Nrf2 inh: 21µM*

Results for O=C(CSc1nc(-c2ccco2)cc(C(F)(F)F)n1)Nc1ccc(C(=O)N2CCCCC2)cc1 ?
Rango dissoc inh: 8%; Nrf2 activator: 0%; Rango complex inh: -3%; A549 tox: -16%; Nrf2 inh: 23µM*

How did O=C(CCSc1nc(-c2ccco2)cc(C(F)(F)F)n1)NCC1CCCO1 (centres undefined) do in these assays?
Rango dissoc inh: 26µM*; Nrf2 activator: -1%; Rango complex inh: inconclusive; A549 tox: -17%; Nrf2 inh: inconclusive

What do the screens show for `Cc1ccc(NC(=O)CSc2nc(-c3ccco3)cc(C(F)(F)F)n2)cc1`?
Nrf2 activator: 0%; A549 tox: -4%; Nrf2 inh: 7%

What do the screens show for `COc1cccc(CNC(=O)CCc2c(C)nn(-c3ccc(N4CCOCC4)nn3)c2C)c1`?
Nrf2 activator: 0%; A549 tox: -4%; Nrf2 inh: inconclusive

What do the screens show for `Cc1cc2c(s1)c1cnn(Cc3ccc(Br)cc3F)c(=O)c1n2C`?
A549 tox: -1%; Nrf2 inh: 14%

How did CCOC(=O)C1=C(CN2CCSCC2)NC(=O)NC1c1ccc2c(c1)OCO2 (centres undefined) do in these assays?
Rango dissoc inh: 0%; Nrf2 activator: 0%; Rango complex inh: 0%; A549 tox: 1%; Nrf2 inh: -6%

What do the screens show for `CCOC(=O)C1=C(CCl)NC(=O)NC1c1ccc2c(c1)OCO2` (centres undefined)?
Rango dissoc inh: -9%; Nrf2 activator: 21%; Rango complex inh: inconclusive; A549 tox: -18%; Nrf2 inh: 15µM*

Results for CC1=C(C(=O)OCc2ccc3c(c2)OCO3)C(c2ccc(Cl)cc2)NC(=O)N1 (centres undefined) ?
Rango dissoc inh: 10%; Nrf2 activator: 0%; Rango complex inh: 0%; A549 tox: inconclusive; Nrf2 inh: 7.3µM*

Results for Cc1c(C)n(Cc2ccccc2)c2ncnc(NN)c12 ?
Rango dissoc inh: 11%; Nrf2 activator: 0%; Rango complex inh: -3%; A549 tox: -17%; Nrf2 inh: 26µM*

What do the screens show for `O=C(CNc1ccc(Br)cc1)Nc1ccc(S(=O)(=O)N2CCCC2)cc1`?
Rango dissoc inh: 7%; Nrf2 activator: 0%; Rango complex inh: -2%; A549 tox: -5%; Nrf2 inh: -20%

Results for O=C(CNc1ccc(Br)cc1)Nc1cccc(S(=O)(=O)N2CCCC2)c1 ?
Rango dissoc inh: -1%; Nrf2 activator: 0%; Rango complex inh: 1%; A549 tox: inconclusive; Nrf2 inh: 21µM*

What do the screens show for `COc1ccc(NCC(=O)Nc2cccc(S(=O)(=O)N3CCCC3)c2)cc1Cl`?
Rango dissoc inh: 12%; Nrf2 activator: 1%; Rango complex inh: 1%; A549 tox: -21%; Nrf2 inh: 18µM*

Results for COc1cc(NC(=O)CNc2cccc(S(=O)(=O)N3CCCC3)c2)cc(OC)c1 ?
Rango dissoc inh: 5%; Nrf2 activator: -1%; Rango complex inh: -1%; A549 tox: -12%; Nrf2 inh: inconclusive

Results for O=C(CNc1cccc(S(=O)(=O)N2CCCC2)c1)Nc1cccc(Br)c1 ?
Rango dissoc inh: -7%; Nrf2 activator: 2%; Rango complex inh: -1%; A549 tox: -23%; Nrf2 inh: 21µM*

What do the screens show for `COc1ccc(Nc2ccc3cc(S(=O)(=O)N4CCCC4)ccc3n2)cc1Cl`?
Nrf2 activator: 4%; A549 tox: -25%; Nrf2 inh: 26µM*

Results for CC(NC(=O)c1cccc(NC(=O)c2nsc3ccccc23)c1)c1ccccc1 (centres undefined) ?
Nrf2 activator: 4%; A549 tox: 9%

How did COc1ccc(C2C(C#N)=C(N)N(c3ccccc3C#N)C3=C2C(=O)CCC3)cc1CN1CCCC1 (centres undefined) do in these assays?
Rango dissoc inh: 7%; Nrf2 activator: 0%; Rango complex inh: -3%; A549 tox: -8%; Nrf2 inh: -17%

How did COCCn1c(SCC(=O)Nc2ccc(F)c(Cl)c2)nc2c(oc3ccccc32)c1=O do in these assays?
Nrf2 activator: -1%; A549 tox: -8%; Nrf2 inh: inconclusive

How did COc1cc(Cl)c(C)cc1NC(=O)C(OC(=O)CNC(=O)c1ccccc1)c1ccccc1 (centres undefined) do in these assays?
A549 tox: 1%; Nrf2 inh: 15%

Sorted by count of non-hydrogen atoms (smallest number first): part of the list above.
What do the screens show for `O=C(CNc1ccc(Br)cc1)Nc1ccc(S(=O)(=O)N2CCCC2)cc1`?
Rango dissoc inh: 7%; Nrf2 activator: 0%; Rango complex inh: -2%; A549 tox: -5%; Nrf2 inh: -20%

How did CCOC(=O)C1=C(CN2CCSCC2)NC(=O)NC1c1ccc2c(c1)OCO2 (centres undefined) do in these assays?
Rango dissoc inh: 0%; Nrf2 activator: 0%; Rango complex inh: 0%; A549 tox: 1%; Nrf2 inh: -6%

Results for COc1cc(NC(=O)CNc2cccc(S(=O)(=O)N3CCCC3)c2)cc(OC)c1 ?
Rango dissoc inh: 5%; Nrf2 activator: -1%; Rango complex inh: -1%; A549 tox: -12%; Nrf2 inh: inconclusive

How did COc1cc(Cl)c(C)cc1NC(=O)C(OC(=O)CNC(=O)c1ccccc1)c1ccccc1 (centres undefined) do in these assays?
A549 tox: 1%; Nrf2 inh: 15%
